This note sets out measurements from US20200071380A1, “COMBINATION THERAPIES COMPRISING SIRP ALPHA-BASED CHIMERIC PROTEINS” (Shattuck Labs, Inc., priority 2018, published 2020).

The assay deals with low Her2-expressing breast cancer cell line (MCF7). The experiment in a line: Macrophage engulfment of MCF7 cells. It is filed as cell-based, human. Conditions: HER2LOW cell line MCF7.

As to “trastuzumab: anti-Her2 antibody [reference compound]”, the phagocytosis entry was “did not induce phagocytosis”.
